# The list is not random: actives were taken first. Their share in the collection is about 13%.
# G9a inh – G9a (human) methyltransferase inhibition | Q96KQ7 | G9a H3K9 monomethylation, AlphaScreen, 2 h | Potency, µM (top dose mostly 102 µM), for inactives: top-dose activity, negative = inhibition, hits mostly inhibitors | hit rate 8.8% among 350,000; note: potency is the fitted concentration of half-maximal effect; % is set by controls: 0 for no effect and ±100 for the full control effect; nearly all actives have a fitted effect of over 75% in size
#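 Methyltransferase reactions run at room temperature for 2 h (20 nM enzyme, 500 nM biotin-H3K9 peptide, 20 uM SAM) after a 15 min compound preincubation; product detected by AlphaScreen beads and anti-H3K9me1 antibody.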
# LMNA splice mod – LMNA splicing modulation; Potency, µM (series often up to 46.1 µM), for the others: at the top dose ratio change, negative = inhibition, usual class: inhibitors; HeLa LMNA splicing GFP/RFP minigene ratio, 48 h; hit rate 0.01% among 200,000; active = well fitted inhibition curve with a large enough effect in the signal ratio, with a control signal flat, not every such curve was filed as active; inconclusive = small, poorly fitted or top-dose-only effect, or effect the other way, or a change in a side signal; the % refers to the signal ratio; note: potency is the fitted concentration of half-maximal effect; % is set by controls: 0 for no effect and ±100 for the full control effect
#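 Read-out is the ratio of GFP to DsRed2 object intensity, acquired by 488 nm laser-scanning cytometry on HeLa lamin A-EGFP minigene reporter cells. Compound incubation 48 hrs at 37 °C in Opti-MEM with 2% FBS; DMSO 0.5% final.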
# ALDH1A1 block – inhibitors of human aldehyde dehydrogenase 1A1; P00352; Purified ALDH1A1, NADH fluorescence, propionaldehyde substrate; Potency, µM (titrated, usually from 75.3 µM), for the others: at the highest dose activity, negative = inhibition, actives largely listed as inhibitors; hit rate 7.3% among 220,000; active = well fitted inhibition curve with a large enough effect, not every such curve was filed as active; inconclusive = small, poorly fitted or top-dose-only effect, or another doubt; inactive = no such curve, though single readings can be large or run the other way;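 note: potency is the fitted concentration of half-maximal effect; plate controls were no enzyme wells and a reference inhibitor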
# Sfp PPTase inh – Sfp phosphopantetheinyl transferase inhibition. 3.5% of 310,000 active. AID 1490. Potency, µM, inactives show max response, negative = inhibition, actives largely listed as inhibitors. Biochemical Sfp PPTase activity, qHTS; active = well fitted inhibition curve with a large enough effect; inconclusive = small, poorly fitted or top-dose-only effect, or another doubt; inactive = no such curve, though single readings can be large or run the other way;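 note: the enzyme is Sfp with the accession as filed and its product quenches rhodamine fluorescence; potency is the fitted concentration of half-maximal effect; 0% = enzyme reaction without inhibitor and -100% = no enzyme wells; top concentration of the series not given in the record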
#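 Step 1, compound plus 15 nM Sfp-PPTase, 15 min, room temperature. Step 2, add rhodamine-CoA (5 uM) and BHQ-2-YbbR (12.5 uM). Step 3, read 525/598 nm fluorescence at 0 and 30 min.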
# miR-21 reporter – miR-21 reporter, rising signal; HeLa miR-21 FLuc reporter, luciferase, 48 h; Potency, µM (titrated, usually from 38.3 µM), for the others: at the top dose reporter change, positive = more light; 340,000 tested, under 10 active; AID 2288; active = well fitted rising curve with a large enough effect; inconclusive = small, poorly fitted or top-dose-only effect; inactive = no such curve, though single readings can be large or run the other way;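 also: % of control where 0% means no effect; miR-21 action dims this reporter so a rising signal means less miR-21 action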
#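 Compounds were titrated across several concentrations (up to approximately 40 uM) and incubated 48 hours with HeLa miR-21-FLuc reporter cells (miR-21 target sequence downstream of FLuc, endogenous miR-21). Readout was firefly luciferase luminescence after lytic detection reagent.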
# JMJD2E inh – blocks human JMJD2E demethylase activity; JMJD2E catalytic domain, FDH-coupled NADH fluorescence (FDH is formaldehyde dehydrogenase); Potency, µM (series often up to 57.1 µM), for inactives: at the highest dose activity change, negative = inhibition, hits mostly inhibitors; hit rate 1.6% among 230,000; AID 2147; active = well fitted inhibition curve with a large enough effect, not every such curve was filed as active; inconclusive = small, poorly fitted or top-dose-only effect, or another doubt; inactive = no such curve, though single readings can be large or run the other way;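 note: potency is the fitted concentration of half-maximal effect; 0% = wells with enzyme and -100% = buffer wells without enzyme; nearly all actives have a fitted effect of over 50% in size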
# * hit, by the source's call; ? = inconclusive; · = no result; [ ] = another dose, or the depositor's remark. Unless noted, calls come from the whole dose curve; as a rule, active = well fitted curve in the direction sought with a large enough effect; inconclusive = small, poorly fitted or top-dose-only effect, or another doubt; inactive = no such curve, though single readings can be large; an effect the other way counts as inactive or inconclusive.
# Short forms – A = G9a inh; B = LMNA splice mod; C = ALDH1A1 block; D = Sfp PPTase inh; E = miR-21 reporter; F = JMJD2E inh
CC1=C(C(N)=O)C(c2cccc(C)c2)n2nc(-c3ccc(Cl)cc3)nc2N1 (stereo not drawn)
  A: 11%[59 µM] | B: ? | C: · | D: · | E: 7% | F: ·

C=CCN1CCc2c(cc(O)c(O)c2Cl)C(c2cccc(C)c2)C1 (stereo not drawn)
  A: · | B: · | C: 2% | D: -24% | E: · | F: 14µM*

CCC1Oc2ccc(C)cc2N(CC(=O)N2CCOCC2)C1=O (stereo not drawn)
  A: -4% | B: · | C: · | D: 14% | E: 9% | F: ·

Nn1cnnc1N/N=C/c1ccc(Cl)c([N+](=O)[O-])c1
  A: 45µM* | B: · | C: ? | D: ? | E: 5% | F: -80%

Nn1cnnc1N/N=C/c1ccc(F)cc1
  A: 45µM* | B: · | C: · | D: 56µM* | E: 6% | F: ·

Nn1cnnc1N/N=C/c1cccc(Cl)c1Cl
  A: ? | B: · | C: · | D: ? | E: -8% | F: ·

Cc1ccc(/C=N/Nc2nncn2N)cc1
  A: 5%[2.33 µM] | B: · | C: · | D: 40µM* | E: -1% | F: ·

CS(=O)(=O)Nc1cccc(-c2nccc(NCc3ccccc3)n2)c1
  A: · | B: 7% | C: 6% | D: -4% | E: · | F: -2%

O=C(NCc1ccc2c(c1)OCO2)C(C(=O)c1ccccc1)n1cc(Cl)ccc1=O (stereo not drawn)
  A: 50µM* | B: -10% | C: 11% | D: 7% | E: -11% | F: 1%

O=C(NCc1ccc2c(c1)OCO2)c1cccc(C(=O)NCc2ccc3c(c2)OCO3)c1
  A: 18%[59 µM] | B: ? | C: -8% | D: 19% | E: 0% | F: -1%

COc1cccc(CC(=O)OCC(=O)NCCc2ccc(F)cc2)c1
  A: -3%[12.7 µM] | B: · | C: · | D: · | E: · | F: ·

O=S(=O)(c1c(Cl)sc(Cl)c1Br)N1CCCC1
  A: 20% | B: 10%[46 µM] | C: 14µM* | D: 6% | E: -11% | F: -3%

O=S(=O)(c1ccc(Cl)cc1)N1CCCCCC1
  A: 44% | B: · | C: · | D: 5% | E: -6% | F: ·

COc1cc2oc(=O)c(Br)c(C)c2c(OC)c1OC
  A: 12% | B: 4% | C: 13µM* | D: 6% | E: -25% | F: -4%

COCCN(C(=O)c1snc(C(N)=O)c1N)C(C(=O)NC1CCCCC1)c1ccc(F)cc1 (stereo not drawn)
  A: · | B: · | C: · | D: 0% | E: 1% | F: ·

Cc1ccc2nc3sc(C(=O)NCc4ccco4)c(N)c3cc2c1
  A: 1.6µM* | B: ? | C: 7% | D: 4% | E: -62% | F: 0%

COc1cc2cc3c(N)c(C(=O)NCc4ccco4)sc3nc2cc1OC
  A: 28µM* | B: ? | C: 5% | D: -15% | E: -51% | F: ?

COc1ccc(CC(=O)NCc2ccco2)cc1OC
  A: -24%[12.7 µM] | B: 4% | C: -14% | D: ? | E: 1% | F: -12%

CCCn1c(=N)c(C(=O)NC(C)c2ccccc2)cc2c(=O)n3ccccc3nc21 (stereo not drawn)
  A: -2%[59 µM] | B: 3%[46 µM] | C: · | D: · | E: 1% | F: ·

Cc1cc(N2CCN(C)CC2)nc2ccc(NC(=S)N3CCN(c4ccccn4)CC3)cc12
  A: 50µM* | B: · | C: 13µM* | D: 8% | E: 0% | F: ?

Cc1ccc(C)c(N2CCN(C(=S)Nc3ccc4nc(N5CCN(C)CC5)cc(C)c4c3)CC2)c1
  A: 40µM* | B: · | C: -7% | D: -27% | E: -1% | F: ?

Cc1nc2ccc(NC(=S)N3CCN(c4ccccn4)CC3)cc2nc1C
  A: -20%[59 µM] | B: -1% | C: ? | D: 7% | E: -9% | F: -8%

CCN1CCN(c2cc(C)c3cc(NC(=S)N4CCC5(CC4)OCCO5)ccc3n2)CC1
  A: ? | B: ? | C: ? | D: 23% | E: -1% | F: ?

Cc1cc(N2CCN(C)CC2)nc2ccc(NC(=S)N3CCC4(CC3)OCCO4)cc12
  A: 45µM* | B: · | C: -8% | D: 19% | E: -6% | F: ?

COc1ccccc1N(CC(=O)N(C)Cc1ccccc1)S(=O)(=O)c1cccs1
  A: -2%[2.33 µM] | B: · | C: · | D: · | E: · | F: ·

COc1n[nH]c(C(=O)NCc2ccccc2)c1[N+](=O)[O-]
  A: 56µM* | B: · | C: 0% | D: -5% | E: 4% | F: -10%

COc1n[nH]c(C(=O)Nc2nc3ccccc3s2)c1[N+](=O)[O-]
  A: 14µM* | B: ? | C: -12% | D: 28% | E: -63% | F: 4%

O=C(Oc1ccc(F)cc1)c1nc(SCc2ccc(F)cc2)ncc1Cl
  A: 49%[59 µM] | B: · | C: · | D: · | E: 5% | F: ·

CCC(C)/C(C)=N/NC(=O)c1ccc(COc2ccc(Cl)c(C)c2)cc1 (stereo not drawn)
  A: 21%[59 µM] | B: -9% | C: 13µM* | D: 17% | E: -43% | F: 10%

Cc1ccc(/C=N\NC(=O)c2ccc3c(c2)OCO3)o1
  A: · | B: · | C: · | D: -26% | E: -30% | F: ·

O=C(NCc1ccccn1)C(=O)C1C(=O)Nc2ccccc21 (stereo not drawn)
  A: 50µM* | B: -16%[46 µM] | C: ? | D: -20% | E: -2% | F: -1%

CCCCCNC(=O)C(=O)C1C(=O)Nc2ccccc21 (stereo not drawn)
  A: · | B: · | C: · | D: 9% | E: 8% | F: ?

O=C1Nc2ccccc2C1Cc1ccccn1 (stereo not drawn)
  A: ? | B: · | C: · | D: -7% | E: -10% | F: -8%

CN(C)CCNC(=O)C(=O)C1C(=O)Nc2ccccc21 (stereo not drawn)
  A: 32µM* | B: · | C: ? | D: 12% | E: -1% | F: -15%

C/C(NC(=O)c1ccccc1)=C1/C(=O)CC2C1C2(C)C (stereo not drawn)
  A: 9%[59 µM] | B: ? | C: ? | D: -6% | E: -48% | F: 6%

C/C(N[C@@H]1CSCC1O)=C1/C(=O)CC2[C@@H]1C2(C)C (stereo partly drawn)
  A: · | B: · | C: 8.9µM* | D: 0% | E: · | F: -3%

O=C(CCC1CCCNC1)c1ccccc1 (stereo not drawn)
  A: 50µM* | B: · | C: · | D: -29% | E: -2% | F: ·

O=C(CCCCCCCC(=O)c1ccccc1)c1ccccc1
  A: 472%[59 µM] | B: ? | C: 3% | D: 11% | E: -1% | F: -13%

CCOC(=O)c1sc(NC(=O)C2CC(=O)N(c3ccc(C)cc3)C2)nc1C (stereo not drawn)
  A: ? | B: · | C: · | D: -1% | E: 10% | F: ·

CC(NC(=S)NCCCN1CCOCC1)C12CC3CC(CC(C3)C1)C2 (stereo not drawn)
  A: ? | B: · | C: -13% | D: -11% | E: -6% | F: 1%

O=C(/C=C/c1cccnc1)c1cccc(O)c1
  A: 35µM* | B: · | C: · | D: ? | E: ? | F: ·

Cc1noc(/C=C/c2cccnc2)c1[N+](=O)[O-]
  A: 45µM* | B: · | C: · | D: 3% | E: ? | F: ·

Cc1ccc(C(=O)Oc2cccnc2)cc1[N+](=O)[O-]
  A: ? | B: 2% | C: -9% | D: 8% | E: -1% | F: 5%

O=C(/C=C/c1cccnc1)c1ccccc1O
  A: 35µM* | B: · | C: · | D: 45µM* | E: -7% | F: ?

O=C(Oc1cccnc1)c1ccc([N+](=O)[O-])cc1
  A: 10µM* | B: -11% | C: 18% | D: -4% | E: -1% | F: 3%

Cc1ccc(/C=C/C(=O)c2ccccc2O)cc1
  A: · | B: · | C: · | D: -17% | E: -33% | F: -24%

O=C(/C=C/c1cccc(O)c1)c1cccnc1
  A: ? | B: · | C: 1% | D: -26% | E: 5% | F: -13%

Cc1ccnc(NC(=O)CCC(=O)N(CC(=O)NCCc2ccccc2)c2ccccc2F)c1
  A: -2% | B: · | C: · | D: -10% | E: -1% | F: ·

CS(=O)(=O)c1ccc(Cl)c(NC(=O)CCCc2nc3ccccc3c(=O)[nH]2)c1
  A: 15%[2.33 µM] | B: · | C: · | D: · | E: · | F: ·

CN(C)c1ccc(/C=C/C(=O)c2ccccc2O)cc1
  A: 8.9µM* | B: 22%[9.22 µM] | C: -6% | D: -13% | E: -68% | F: -13%

# 3 entries out of the list above, sorted by the number in miR-21 reporter, ascending.
# Short forms – A = G9a inh; B = LMNA splice mod; C = ALDH1A1 block; D = Sfp PPTase inh; E = miR-21 reporter; F = JMJD2E inh
CN(C)c1ccc(/C=C/C(=O)c2ccccc2O)cc1
  A: 8.9µM* | B: 22%[9.22 µM] | C: -6% | D: -13% | E: -68% | F: -13%

O=C(/C=C/c1cccnc1)c1ccccc1O
  A: 35µM* | B: · | C: · | D: 45µM* | E: -7% | F: ?

Cc1ccnc(NC(=O)CCC(=O)N(CC(=O)NCCc2ccccc2)c2ccccc2F)c1
  A: -2% | B: · | C: · | D: -10% | E: -1% | F: ·

# Screening results (PubChem)
